Source: PubChem BioAssay
E-sel inducer = induces E-selectin expression in human endothelial cells | P16581 | HUVEC E-selectin immunofluorescence imaging; normalized: neutral wells 0, TNF-alpha wells 100 | activation, % at 7.58 µM | 0.37% of 260,000 active;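 active means mean E-selectin-positive cell signal at least 10% of the positive control, reached in at least 60% of replicates, without over 20% cell loss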
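Test system – human umbilical vein endothelial cells (HUVEC), E-selectin induction · Input – 3,000 HUVEC seeded per well · Buffer or medium – EGM-2, gelatin · Compound dosing – single-point compound dose · Detection – immunofluorescence imaging · Measure – percent E-selectin-positive cells · Controls – TNF-alpha high, DMSO low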
SIRT5 block = sirtuin-5 (human) deacylase inhibition. 1.1% of 330,000 active. Purified SirT5, succinyl-peptide AMC, trypsin-coupled fluorescence. AID 652115. inhibition, % at 15 µM; in the data active means inhibition above about 15%
AF4-AF9 inh = blocks AF4 peptide binding to human AF9 | inhibition, % at 10 µM | 0.47% of 350,000 active | AlphaScreen, biotin-AF4 peptide binding to FLAG-AF9;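 active means every replicate reaching a set inhibition limit, whatever the replicate mean, cut at about 25% in these data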;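 further: 0% = plate neutral control median and 100% = total signal loss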
RAD54 branch = inhibitors of human RAD54 branch migration | AID 602329 | inhibition, % at 10.4 µM | RAD54 Holliday junction branch migration, FAM/BHQ fluorescence | 0.14% of 360,000 active | Q92698;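 active means mean normalized replicate activity at least 40 and at least half of replicates scoring 40 or more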;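 further: 0% = median of neutral control wells and 100% = median of positive control wells; inhibitors cause a drop in the FAM fluorescence signal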
Yeast UUG start = yeast start codon fidelity modulation | S. cerevisiae UUG-firefly luciferase reporter, luminescence/redox ratio | activity score, % at 18.7 µM | 0.13% of 350,000 active | AID 602363;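 active means replicate mean at a twofold rise or more, about +100% in these data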;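 further: firefly luciferase made from a UUG start codon reports start codon fidelity; reporter light over untreated wells divided by growth signal over untreated wells; some hits fall short of that in this replicate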
RAD52 inh = inhibitors of human RAD52 DNA annealing; inhibition, % at 18.7 µM; recombinant RAD52 DNA annealing, FRET fluorescence; P43351; 0.46% of 360,000 active;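 active means every replicate showing at least 50% inhibition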
The depositor's hits bear a star; · = no result given; ! = a repeat was not active. The list is not random: actives were taken first. Their share in the collection is about 1.8%.

1. C[C@@H]1CN([C@H](C)CO)S(=O)(=O)c2ccc(-c3ccc(F)cc3)cc2O[C@@H]1CN(C)C(=O)C1CCCCC1
2. Cc1nn(-c2ccccc2)c(N)c1N=Nc1ccc(Cl)cc1
3. Cc1nn(-c2ccccc2)c(N)c1N=Nc1ccccc1
4. CN(C)c1ccc2c(c1)[C@@H]1C[C@@H](CC(=O)NCc3ccccc3)O[C@H](CO)[C@@H]1O2
5. CN(C)c1ccc2c(c1)[C@@H]1C[C@@H](CC(=O)NCCN3CCCCC3)O[C@H](CO)[C@@H]1O2
6. CC(C)c1ccc(Nc2ccc(C(=O)O)cc2[N+](=O)[O-])cc1

compound no. | 1 | 2 | 3 | 4 | 5 | 6
E-sel inducer | 0.2 | -5.5 | · | -0.2 | 0.1 | 1.9
SIRT5 block | 10.2 | -2.2 | 3.4 | 20.3* | 7.2 | 30.4*
AF4-AF9 inh | 1.3 | 14.3 | 31.3* | 1.3 | 17.4 | 0.0
RAD54 branch | 6.3 | 5.4 | · | 0.2 | 55.3* | -5.2
Yeast UUG start | 4.9 | -14.3 | · | -13.9 | · | -9.9
RAD52 inh | 22.2 | -16.2 | -3.3 | -159.4 | 31.6 | -5.3

7. CN1C(=O)c2cc(NC(=O)c3cccc(F)c3)ccc2OC[C@H]2O[C@H](CC(=O)Nc3ccccc3)CC[C@H]21
8. CO[C@@H](CN(C)CC1CCOCC1)[C@H](C)CN(C(=O)Nc1ccc(F)cc1)[C@H](C)CO
9. CO[C@H](CN(C)CC1CCOCC1)[C@@H](C)CN(C(=O)Nc1ccc(F)cc1)[C@H](C)CO
10. Cc1cc(C)c2nc(N3C(=O)C(O)=C(C(=O)c4ccco4)C3c3ccc(O)cc3)sc2c1 (stereo unspecified)
11. Cc1cc(C)c2nc(N3C(=O)C(O)=C(C(=O)c4ccco4)C3c3cccc(O)c3)sc2c1 (stereo unspecified)
12. CCCC#Cc1ccc([C@H]2[C@H]3CN(C(=O)c4ccc5c(c4)OCO5)CCCCN3[C@H]2CO)cc1

compound no. | 7 | 8 | 9 | 10 | 11 | 12
E-sel inducer | 0.1 | 0.0 | 0.0 | · | · | -0.2
SIRT5 block | · | 16.3* | -4.4 | 17.4* | 16.6* | 4.8
AF4-AF9 inh | -1.2 | 5.6 | -0.6 | 4.0 | -0.3 | 3.5
RAD54 branch | -3.7 | -8.0 | 2.2 | -2.7 | -9.7 | 2.3
Yeast UUG start | 3.1 | · | · | 8.1 | -6.3 | 18.2
RAD52 inh | -0.8 | -7.1 | -14.2 | -14.2 | -67.0 | 20.8

13. C[C@@H]1CN([C@H](C)CO)C(=O)Cc2cc(NS(=O)(=O)c3ccccc3)ccc2O[C@H]1CN(C)S(=O)(=O)c1cn(C)cn1
14. CC/C=C\C/C=C\C/C=C\CCCCCCCC(=O)O
15. Cc1cccc(C)c1NC(=O)CN(Cc1ccccc1)Cc1ccccc1
16. Cc1ccc(S(=O)(=O)N(C)CC(=O)N2CCN(Cc3ccc4c(c3)OCO4)CC2)cc1
17. COc1cccc(CN2CCC(C(=O)N3CCN(Cc4ccc5c(c4)OCO5)CC3)CC2)c1
18. C[C@@H]1CN([C@H](C)CO)C(=O)c2cc(NS(=O)(=O)c3ccc(F)cc3)ccc2O[C@H]1CN(C)Cc1ccccc1

compound no. | 13 | 14 | 15 | 16 | 17 | 18
E-sel inducer | -3.2 | -0.2 | -0.1 | · | -0.3 | 0.1
SIRT5 block | -2.2 | 16.7* | 34.4* | 30.1* | 17.0* | 3.6
AF4-AF9 inh | 0.2 | -2.0 | -1.8 | -1.2 | 1.2 | 0.7
RAD54 branch | 0.3 | -1.6 | -8.0 | -8.3 | 12.4 | -2.5
Yeast UUG start | 3.2 | -2.1 | -17.5 | -6.1 | 2.9 | 19.3
RAD52 inh | -11.8 | -26.4 | -10.8 | -5.8 | -19.7 | -13.6

19. CCCNC(=O)N1CC2(CCN(CC3CCCCC3)CC2)c2c([nH]c3cc(OC)ccc23)[C@@H]1CO
20. CCc1c(C)nc2ccc(Br)cc2c1SCCC#N
21. O=C(C1CC1)N1CC[C@@H]2[C@H]1c1cc(C#Cc3ccccc3F)ccc1N[C@@H]2CO
22. Cc1noc(C)c1NC(=O)Nc1ccc2c(c1)C(=O)N([C@H](C)CO)C[C@@H](C)[C@@H](CN(C)C(=O)Nc1ccc(C(F)(F)F)cc1)OCCCC[C@@H](C)O2
23. C[C@@H]1CCCCO[C@H](CN(C)C(=O)Nc2ccc(C(F)(F)F)cc2)[C@H](C)CN([C@@H](C)CO)C(=O)c2cc(NC(=O)Nc3ccccc3)ccc2O1
24. C[C@@H]1CCCCO[C@@H](CN(C)C(=O)Nc2ccc(C(F)(F)F)cc2)[C@H](C)CN([C@@H](C)CO)C(=O)c2cc(NC(=O)Nc3ccc4c(c3)OCO4)ccc2O1

compound no. | 19 | 20 | 21 | 22 | 23 | 24
E-sel inducer | -0.1 | 1.5 | -0.3 | 0.0 | 0.1 | 0.1
SIRT5 block | · | 112.4* | · | 1.0 | 7.4 | 15.5*
AF4-AF9 inh | -1.1 | -5.9 | · | 4.8 | -3.6 | -1.3
RAD54 branch | · | · | 7.5 | -9.2 | -6.2 | -6.2
Yeast UUG start | · | · | -1.3 | -4.7 | -7.6 | -5.9
RAD52 inh | 17.8 | -5.4 | · | 8.7 | 12.6 | 7.8

25. C[C@H](CO)N1C[C@H](C)[C@H](CN(C)C(=O)Nc2ccc(C(F)(F)F)cc2)OCCCC[C@H](C)Oc2ccc(NC(=O)Nc3ccc4c(c3)OCO4)cc2C1=O
26. C[C@H](CO)N1C[C@H](C)[C@@H](CN(C)C(=O)Nc2ccc3c(c2)OCO3)OCCCC[C@H](C)Oc2ccc(NC(=O)Nc3ccc(C(F)(F)F)cc3)cc2C1=O
27. Cc1noc(C)c1NC(=O)Nc1ccc2c(c1)C(=O)N([C@H](C)CO)C[C@H](C)[C@@H](CN(C)C(=O)Nc1ccc(C(F)(F)F)cc1)OCCCC[C@H](C)O2
28. C[C@@H]1CCCCO[C@@H](CN(C)C(=O)Nc2ccccc2)[C@@H](C)CN([C@@H](C)CO)C(=O)c2cc(NC(=O)Nc3ccc(C(F)(F)F)cc3)ccc2O1
29. C[C@@H]1CN([C@H](C)CO)S(=O)(=O)c2ccc(-c3ccc(C(=O)N(C)C)cc3)cc2O[C@@H]1CN(C)C(=O)C1CC1
30. Cn1cnc(S(=O)(=O)N2CCCCN3[C@H](C2)[C@H](c2ccc(C4=CCCC4)cc2)[C@@H]3CO)c1

compound no. | 25 | 26 | 27 | 28 | 29 | 30
E-sel inducer | 0.7 | 3.8 | -0.3 | 1.7 | 0.5 | ·
SIRT5 block | 15.1* | 2.4 | 21.4* | -1.6 | · | 1.0
AF4-AF9 inh | -0.2 | -1.8 | 0.5 | 35.3* | · | -5.7
RAD54 branch | -4.8 | 9.0 | -12.7 | · | · | -8.4
Yeast UUG start | -4.9 | -19.1 | -10.8 | · | · | -6.5
RAD52 inh | 1.9 | -8.4 | -8.0 | -13.2 | · | 12.1

31. C[C@H]1CCCCO[C@H](CN(C)C(=O)Nc2ccc(F)cc2)[C@@H](C)CN([C@@H](C)CO)C(=O)c2cc(NC(=O)Nc3ccc4c(c3)OCO4)ccc2O1
32. C[C@@H]1CCCCO[C@@H](CN(C)C(=O)Nc2ccc3c(c2)OCO3)[C@H](C)CN([C@@H](C)CO)C(=O)c2cc(NC(=O)Nc3ccc(F)cc3)ccc2O1
33. O=C(COC(=O)c1ccc(Br)o1)Nc1ncc([N+](=O)[O-])s1
34. COc1ccc(C(=O)OCC(=O)Nc2ncc([N+](=O)[O-])s2)cc1OC
35. C[C@@H]1CCCCO[C@@H](CN(C)CC2CC2)[C@H](C)CN([C@@H](C)CO)C(=O)c2cc(NC(=O)CCC(F)(F)F)ccc2O1
36. CO[C@@H]1CC[C@H]2CCOc3ccc(C#N)cc3C(=O)N(C)C[C@H](c3ccccc3)CC(=O)N(C)C[C@H]1O2
37. CC(C)NC(=O)CSCc1cccc(Br)c1

compound no. | 31 | 32 | 33 | 34 | 35 | 36 | 37
E-sel inducer | · | 0.0 | -0.6 | 0.1 | -0.2 | 0.2 | ·
SIRT5 block | -5.0 | 1.2 | 16.2* | 5.9 | 1.4 | · | 18.9*
AF4-AF9 inh | 32.3*! | -3.5 | 0.1 | -0.7 | -6.5 | · | -9.1
RAD54 branch | 0.2 | 4.6 | · | -8.8 | -1.4 | · | -5.0
Yeast UUG start | 5.5 | 2.1 | · | -23.2 | · | · | 5.1
RAD52 inh | -14.1 | 16.3 | -17.3 | -22.1 | 18.0 | · | -8.9

Records listed so far marked active in AF4-AF9 inh.
| # | SMILES | SIRT5 block | AF4-AF9 inh | Yeast UUG start | RAD52 inh |
| --- | --- | --- | --- | --- | --- |
| 3 | Cc1nn(-c2ccccc2)c(N)c1N=Nc1ccccc1 | 3.4 | 31.3* | · | -3.3 |
| 28 | C[C@@H]1CCCCO[C@@H](CN(C)C(=O)Nc2ccccc2)[C@@H](C)CN([C@@H](C)CO)C(=O)c2cc(NC(=O)Nc3ccc(C(F)(F)F)cc3)ccc2O1 | -1.6 | 35.3* | · | -13.2 |
| 31 | C[C@H]1CCCCO[C@H](CN(C)C(=O)Nc2ccc(F)cc2)[C@@H](C)CN([C@@H](C)CO)C(=O)c2cc(NC(=O)Nc3ccc4c(c3)OCO4)ccc2O1 | -5.0 | 32.3*! | 5.5 | -14.1 |
